Reference: PubChem BioAssay AID485344 (National Center for Advancing Translational Sciences (NCATS), 2010)
This is a selection; strong and weak results do not stand in their true shares. Activity calls are given as the source filed them. No stated cut-off is given here; in the data, active means inhibition above about 30%; inactive means below that, where a call was filed.
Further: 0% is about no effect.

Protein sequences, listed by entry. Tags and fused reporters are not part of them.
UniProt P14416, whole entry, looked up: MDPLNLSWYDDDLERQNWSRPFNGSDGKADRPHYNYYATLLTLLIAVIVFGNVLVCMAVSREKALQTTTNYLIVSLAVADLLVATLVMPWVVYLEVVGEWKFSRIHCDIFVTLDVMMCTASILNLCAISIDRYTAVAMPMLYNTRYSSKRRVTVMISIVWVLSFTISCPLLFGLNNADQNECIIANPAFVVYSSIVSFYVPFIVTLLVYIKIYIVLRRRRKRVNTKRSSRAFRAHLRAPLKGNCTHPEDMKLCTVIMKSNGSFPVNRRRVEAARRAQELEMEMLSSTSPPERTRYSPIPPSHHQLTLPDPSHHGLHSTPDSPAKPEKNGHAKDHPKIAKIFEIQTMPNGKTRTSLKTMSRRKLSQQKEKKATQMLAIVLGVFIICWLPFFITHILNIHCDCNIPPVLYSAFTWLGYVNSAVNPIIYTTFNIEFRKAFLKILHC

What follows are molecules tested against D(2) dopamine receptor (Homo sapiens) (UniProt P14416) (assay: HTS Assay for Allosteric Antagonists of the Human D2 Dopamine Receptor: Primary Screen for Antagonists). Details: HEK293 TREx D2 cells, calcium flux, dopamine EC80; at 10 µM; stronger effect = higher value.
Source text: NIH Chemical Genomics Center [NCGC] NIH Molecular Libraries Probe Centers Network [MLPCN] MLPCN Grant: NS064831-01 Assay Submitter (PI): David Sibley Dopamine receptors (DARs) are involved in the etiology and/or therapy of a number of neuropsychiatric and endocrine disorders. For instance, all receptor-based antiparkinsonian drugs work via stimulating the D2 DAR subtype whereas all FDA-approved antipsychotic agents are antagonists of this receptor. […] There are three different types of allosteric modulators that we are seeking, two of which will stimulate or augment receptor signaling, allosteric agonists and potentiators, while the third, allosteric antagonists, will attenuate receptor signaling. The present primary screening assay measures compound antagonism after an EC80 addition of dopamine by tracking calcium flux in a […], inducible Hek293 Trex D2 cell line.
Freshly passaged cells are plated in 1536 well black, clear bottom plates at a density of 4000 cells/well in 3 ul of complete media containing 1x tetracycline inducer. After an overnight incubation at 30 C in 5% CO2, cells are loaded with 2 ul of the no wash Calcium Assay Kit (ABD Bioquest) and incubated at room temperature for 30 to 90 minutes. Agonist read: A 10 cycle (1 second/cycle) baseline measurement is taken and then the FDSS online 1536 pintool delivers 23 nl of compound library (as well as dopamine controls) to the plate. The plate is measured for kinetically at 1 cycle/sec for 180 seconds. Following the 180 second read, 1 ul of an EC80 (negative modulation assay) is delivered by an onboard pipette head. Measurements are taken kinetically for an additional 180 seconds.
O=C(Nc1cc([As](=O)(O)O)ccc1O)c1ccccc1 was tested, and the inhibition was inactive: -13.2%.
CC(C)(C)C(=O)NC(Sc1ccncn1)C(Cl)(Cl)Cl (centres undefined) was tested, and the inhibition was inactive: 2.59%.
For O=[N+]([O-])c1ncn(CCn2ncnc2[N+](=O)[O-])n1, the inhibition was inactive: -3.56%.
With O=[N+]([O-])c1cccc(NC2=NCC(CBr)S2)c1 (centres undefined) the inhibition was inactive: 5.8%.
For O=C(O)CNc1ccc([As](=O)(O)O)cc1, the inhibition was inactive: 3.7%.
With COc1ccc(C2=NCC(CBr)S2)cc1 (centres undefined) the inhibition was inactive: -10.5%.
With O=[N+]([O-])c1cccc2n[nH]nc12 the inhibition was inactive: 1.62%.
CC(=O)N1C2C3N(C(C)=O)C1C1N(C(C)=O)C(C(N1C(C)=O)N3C(C)=O)N2C(C)=O was tested, and the inhibition was inactive: -7.69%.
For Cc1ccc(NP(=O)(Oc2ccccc2)Oc2ccccc2)nc1, the inhibition was inactive: -1.71%.
In the case of CCc1nc2c(n1)c1c(non1O)c1c2no[n+]1[O-], the inhibition is reported as inactive: -8.15%.
With O=[N+]([O-])c1cc([N+](=O)[O-])c(CCNc2ccccc2)c([N+](=O)[O-])c1 the inhibition was inactive: -8.72%.
For Nc1ccc([As](=O)(O)c2ccc(N)cc2)cc1, the inhibition was inactive: 16.3%.
In the case of C[N+]1=C2C=CC=CC=C2SC12C([N+](=O)[O-])=CC([N+](=O)[O-])=C[C-]2[N+](=O)[O-] (centres undefined), the inhibition is reported as inactive: 5.33%.
For CCN(/C(=N/P(=O)(N1CCOCC1)N1CCOCC1)N1CCOCC1)c1ccc(OC)cc1, the inhibition was inactive: 1.95%.
For CC(C)=N/N=C(\N)N[N+](=O)[O-], the inhibition was inactive: 6.74%.
With CN(C)C(=O)OCCc1n(C)cc[n+]1C the inhibition was inactive: -16.8%.
For CC1CCN(C(=O)Oc2c(Cl)cc(Cl)c3cccnc23)CC1, the inhibition was inactive: -14.7%.
NC(=O)c1cc([N+](=O)[O-])cc([N+](=O)[O-])c1N was tested, and the inhibition was inactive: -0.654%.
CN(C(=O)Cc1ccc(Cl)c(Cl)c1)[C@H]1CCCC[C@H]1N1CCCC1 was tested, and the inhibition was inactive: 24.8%.
In the case of Cc1ccc(N/C(=N/P(=O)(N2CCOCC2)N2CCOCC2)N2CCOCC2)cc1, the inhibition is reported as inactive: -1.09%.
For COc1ccccc1OP(=O)(Nc1ccc(C)cn1)Oc1ccccc1OC, the inhibition was inactive: 2.99%.
With Cc1ccc(OP(=O)(Nc2nccs2)Oc2ccc(C)cc2)cc1 the inhibition was inactive: 0.292%.
For CN1CCCC(OC(=O)C(c2ccccc2)c2ccccc2)C1 (centres undefined), the inhibition was inactive: -44.5%.
With Clc1ccc(Cl)c(NC2=NCC(CBr)S2)c1 (centres undefined) the inhibition was inactive: -7.47%.
Nc1cc(N)c2nonc2c1[N+](=O)[O-] was tested, and the inhibition was inactive: -8.73%.
In the case of Oc1ccccc1CNc1ccccn1, the inhibition is reported as inactive: 6.38%.
O=C(NC(Sc1ccncn1)C(Cl)(Cl)Cl)c1ccccc1 (centres undefined) was tested, and the inhibition was inactive: -2.02%.
In the case of Cc1c2non([O-])c-2c(C)[n+](=O)[n+]1[O-], the inhibition is reported as inactive: 2.31%.
In the case of CC(=O)Nc1ccc([As](=O)(O)O)cc1, the inhibition is reported as inactive: -2.84%.
For O=C(O)c1ccccc1[As](=O)(O)O, the inhibition was inactive: -19.9%.
In the case of O=P(Nc1nc2ccc(Cl)cc2s1)(c1ccccc1)c1ccccc1, the inhibition is reported as inactive: -4.86%.
Cc1cc(SC(NC(=O)c2ccc(F)cc2)C(Cl)(Cl)Cl)ncn1 (centres undefined) was tested, and the inhibition was inactive: -0.307%.
In the case of CCOP(=O)(Nc1ccccc1)OCC, the inhibition is reported as inactive: 20.5%.
For Cc1ccc(NP(=O)(Oc2ccccc2F)Oc2ccccc2F)nc1, the inhibition was inactive: -24.3%.
O=[N+]([O-])c1cc([N+](=O)[O-])c(CCN2CCOCC2)c([N+](=O)[O-])c1 was tested, and the inhibition was inactive: 6.95%.
For CCN(N=Nc1nonc1N)c1nonc1N, the inhibition was inactive: 3.33%.
With Nc1cccc2ccc([As](=O)(O)O)cc12 the inhibition was inactive: -13.7%.
With O=C(NC1CCS(=O)(=O)C1)NP(=S)(Oc1ccccc1)Oc1ccccc1 (centres undefined) the inhibition was inactive: -5.17%.
c1ccc(-c2nn[nH]n2)c(-c2nn[nH]n2)c1 was tested, and the inhibition was inactive: -11.1%.
Cc1ccc(NP(=O)(Oc2cccc(C)c2)Oc2cccc(C)c2)nc1 was tested, and the inhibition was inactive: -8.61%.
CCOC(=O)NC(Sc1ccccc1)C(Cl)(Cl)Cl (centres undefined) was tested, and the inhibition was inactive: -0.269%.
In the case of COC(=O)c1cc2c(s1)N=C(c1ccccc1)N(C)P2(=O)N1CCOCC1 (centres undefined), the inhibition is reported as inactive: -19%.
In the case of CC(=O)NC(SC(=S)N(CC(C)C)CC(C)C)C(Cl)(Cl)Cl (centres undefined), the inhibition is reported as inactive: 8.35%.
For Cc1ccc(OP(=O)(Nc2ccccn2)Oc2ccc(C)cc2)cc1, the inhibition was inactive: 11.3%.
With O=C(OC1CN2CCC1CC2)c1ccccc1 (centres undefined) the inhibition was inactive: -24%.
CCC(=O)N1C2C3N(C(=O)CC)C1C1N(C(=O)CC)C(C(N1C(=O)CC)N3C(=O)CC)N2C(=O)CC was tested, and the inhibition was inactive: 12.7%.
In the case of Cc1ccccc1OP(=O)(Nc1ccccn1)Oc1ccccc1C, the inhibition is reported as inactive: -4.3%.
For O=c1c2cc([N+](=O)[O-])ccc2[nH]c2c([N+](=O)[O-])cc([N+](=O)[O-])cc12, the inhibition was inactive: 10.1%.
CN(C)C(=O)Oc1noc2ccccc12 was tested, and the inhibition was inactive: 10.3%.
For O=P1(Nc2nc3ccc(Cl)cc3s2)COc2ccccc2O1 (centres undefined), the inhibition was inactive: -5.96%.
With CCOc1ccc(C2=NCC(CBr)S2)cc1 (centres undefined) the inhibition was inactive: 16.6%.
In the case of CC(C)(C)C(=O)NC(Sc1ccccc1)C(Cl)(Cl)Cl (centres undefined), the inhibition is reported as inactive: 25.5%.
For CC(=O)c1ccc(N2CC2c2ccncc2)cc1 (centres undefined), the inhibition was inactive: 2.84%.
In the case of C[C@H]1OP(=O)(Oc2ccccc2)C[C@@H]2O[C@@H]21 (some centres undefined), the inhibition is reported as inactive: -31.1%.
With C[C@@H]1C=CCP(=O)(Oc2ccccc2)O1 (some centres undefined) the inhibition was inactive: 28.5%.
With CC(=O)Nc1ccc([As](=O)(O)O)c(O)c1 the inhibition was inactive: -9.01%.
With CC(=O)Nc1ccc(Oc2c([N+](=O)[O-])cc([N+](=O)[O-])cc2[N+](=O)[O-])cc1 the inhibition was inactive: 12.3%.
For CC(C)C(=O)NC(Sc1ccccc1)C(Cl)(Cl)Cl (centres undefined), the inhibition was inactive: -8.26%.
In the case of O=P(Nc1nccs1)(c1ccccc1)c1ccccc1, the inhibition is reported as inactive: 0.762%.
c1nnnn1CCn1cnnn1 was tested, and the inhibition was inactive: 5.71%.
For O=P(Nc1ccccn1)(c1ccc(Br)cc1)c1ccc(Br)cc1, the inhibition was inactive: 0.756%.
With CN(C)C1(CNC(=O)c2ccc(Cl)c(S(N)(=O)=O)c2)CCCCC1 the inhibition was inactive: -2.78%.
For O=P(Nc1nc2ccccc2s1)(c1ccccc1)c1ccccc1, the inhibition was inactive: -2.96%.
For O=[N+]([O-])c1ccc(O)c(/C=N/Nc2ccc([N+](=O)[O-])cc2[N+](=O)[O-])c1, the inhibition was inactive: -3.49%.
